The source of these data is patent publication US8546392B2, “17Beta-hydroxysteroid dehydrogenase type 1 inhibitors for the treatment of hormone-related diseases” (Universitaet des Saarlandes, priority 2008, dated 2013).

The chains behind the UniProt entries cited, without tags or fusion partners.
UniProt P05177, whole entry: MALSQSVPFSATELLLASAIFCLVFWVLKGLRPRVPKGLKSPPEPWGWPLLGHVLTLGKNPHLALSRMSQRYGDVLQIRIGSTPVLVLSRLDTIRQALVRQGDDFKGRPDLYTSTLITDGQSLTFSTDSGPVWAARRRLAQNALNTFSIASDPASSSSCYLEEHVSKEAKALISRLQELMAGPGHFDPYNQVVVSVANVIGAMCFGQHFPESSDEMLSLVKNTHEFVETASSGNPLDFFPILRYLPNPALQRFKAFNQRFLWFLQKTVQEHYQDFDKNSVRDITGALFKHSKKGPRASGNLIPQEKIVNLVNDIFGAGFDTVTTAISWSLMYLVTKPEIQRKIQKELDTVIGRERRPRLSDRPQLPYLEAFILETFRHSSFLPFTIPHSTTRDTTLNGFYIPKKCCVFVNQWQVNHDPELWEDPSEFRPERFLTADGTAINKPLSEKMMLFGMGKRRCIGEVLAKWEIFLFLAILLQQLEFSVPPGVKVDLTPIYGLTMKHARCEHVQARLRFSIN
UniProt P11712, whole entry: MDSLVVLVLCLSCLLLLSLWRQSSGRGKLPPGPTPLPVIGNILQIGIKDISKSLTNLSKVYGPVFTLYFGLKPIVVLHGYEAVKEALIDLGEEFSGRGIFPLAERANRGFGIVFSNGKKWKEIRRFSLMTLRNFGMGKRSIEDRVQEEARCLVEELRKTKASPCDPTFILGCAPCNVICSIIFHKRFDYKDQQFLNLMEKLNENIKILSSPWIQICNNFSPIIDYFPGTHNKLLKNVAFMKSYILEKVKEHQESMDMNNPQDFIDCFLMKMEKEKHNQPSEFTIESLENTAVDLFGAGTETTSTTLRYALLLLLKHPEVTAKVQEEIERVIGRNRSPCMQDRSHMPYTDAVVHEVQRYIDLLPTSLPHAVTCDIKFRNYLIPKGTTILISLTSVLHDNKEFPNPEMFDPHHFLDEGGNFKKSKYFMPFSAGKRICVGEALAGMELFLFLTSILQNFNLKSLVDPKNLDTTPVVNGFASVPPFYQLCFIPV
UniProt P33261, whole entry: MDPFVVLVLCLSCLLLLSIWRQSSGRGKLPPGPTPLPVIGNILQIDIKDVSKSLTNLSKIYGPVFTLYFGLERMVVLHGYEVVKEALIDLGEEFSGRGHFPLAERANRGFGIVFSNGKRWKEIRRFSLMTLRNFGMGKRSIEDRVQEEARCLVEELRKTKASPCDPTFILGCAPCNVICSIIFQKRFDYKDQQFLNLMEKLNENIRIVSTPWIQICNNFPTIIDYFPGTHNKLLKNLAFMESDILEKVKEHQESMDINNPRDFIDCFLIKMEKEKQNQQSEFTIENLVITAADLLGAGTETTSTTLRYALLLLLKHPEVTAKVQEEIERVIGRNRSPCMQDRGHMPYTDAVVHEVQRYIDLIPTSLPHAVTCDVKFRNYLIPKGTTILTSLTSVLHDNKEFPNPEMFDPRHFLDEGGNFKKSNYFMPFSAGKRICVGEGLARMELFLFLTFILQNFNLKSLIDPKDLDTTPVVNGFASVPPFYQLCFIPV

Structures are written as SMILES.

The target in data set [1] is CYP1A2 (Homo sapiens (Human), UniProt P05177). Kind of data set: P450 inhibition assay CYP1A2.
Data set [2] has as its target CYP2C9 (Homo sapiens (Human), UniProt P11712). Nature of the data set: P450 inhibition assay CYP2C9.
In data set [3] the target is CYP2C19 (Homo sapiens (Human), UniProt P33261). Kind of data set: P450 inhibition assay CYP2C19.
Data set [4] can be described thus: Test for metabolic stability, liver microsomes. The following applies: rat, pH 7.4. Background: Microsomes from liver hold many membrane-bound enzymes, among them those of drug oxidation.

As usually defined, the IC50 is the point on the concentration scale where inhibition reaches its midpoint. The low end stands for greater potency in that assay, the high end for weaker potency in that assay. Usually half-life stands for how long it takes for the measured level to halve. The low end stands for fast loss, the high end for slow loss. Consider `COc1ccc(-c2c(O)ccc3cc(-c4cccc(O)c4)ccc23)cn1` [Compound 62, 6-(3-Hydroxyphenyl)-1-(6-methoxypyridin-3-yl)naphthalene-2-ol], for which the values for the IC50 in data set [1], in data set [2] and in data set [3] were 10500 ± 290 nM, 1250 ± 70 nM and 680 ± 56 nM, respectively. The half-life in data set [4] worked out at 49.8 min.
